Calls of active or inactive are those of the source. No cut-off for these calls is given here.
Biological target: Protein arginine N-methyltransferase 6 (Homo sapiens, UniProt Q96LA8)
Settings: dose 0-837.55 nM

Protein sequences, listed by entry. Tags and fused reporters are not part of them.
UniProt Q96LA8, whole entry, looked up: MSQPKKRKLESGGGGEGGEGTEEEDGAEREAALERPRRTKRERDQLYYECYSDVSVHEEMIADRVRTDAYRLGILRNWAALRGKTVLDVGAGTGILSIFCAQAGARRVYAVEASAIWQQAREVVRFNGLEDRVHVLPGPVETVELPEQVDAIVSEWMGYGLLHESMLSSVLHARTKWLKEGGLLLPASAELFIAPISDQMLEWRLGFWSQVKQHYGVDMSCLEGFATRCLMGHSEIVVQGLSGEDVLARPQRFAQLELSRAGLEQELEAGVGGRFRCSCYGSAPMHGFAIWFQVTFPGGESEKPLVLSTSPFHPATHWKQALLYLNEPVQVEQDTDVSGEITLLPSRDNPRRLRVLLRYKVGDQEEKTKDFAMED

inhibition: Active
SMILES: CNCCN(C)Cc1cncc(-c2ccc(NS(=O)(=O)C3CC3)cc2)c1

Source: ChEMBL document CHEMBL5331091, “Design, synthesis and evaluation of antitumor activity of selective PRMT6 inhibitors” (Eur J Med Chem, 2023)
